For one compound, IC50 results are on record in patent US11155556B2, “Pyrimido-diazepinone kinase scaffold compounds and methods for treating PI3K-mediated disorders” (DANA-FARBER CANCER INSTITUTE, INC., priority 2016, dated 2021).

What all share (format): cell-based
Assay [1] concerns MOLT4 cells. In words: CellTiter-Glo proliferation / cell viability assay, MOLT4. To be noted: Homo sapiens, MOLT-4, 72 h, 3 days, average of three replicates. The method, then: (§1) Proliferation assays were conducted in Jurkat or MOLT4 cell lines using Cell Titer Glo as described in product manual.
(§2) Cell viability assays were performed using CellTiter-Glo (Promega). Cells were grown in RPMI-10% FBS medium. 600 cells per well were seeded in a 96-well plate and then treated with eight doses of each compound in 3-fold dilution steps ranging from 10 um to 0.0046 uM for 3 days. Wells were imaged using a luminometer. IC50 were determined using Prism software. Data was normalized to a dimethyl sulfoxide (DMSO)-only control.

The subject of assay [2] is Jurkat cells. As to the kind of experiment: CellTiter-Glo proliferation / cell viability assay, Jurkat. To be noted: Homo sapiens, 72 h, 3 days, average of three replicates. The method, then:
as §1, §2

Assay [3] relates to Molm14 cells. In words: CellTiter-Glo cell viability assay, Molm14. Particulars: Homo sapiens, MOLM-14, 72 h, 3 days, average of three replicates. Here is the method: as §2
Assay [4] concerns MV4:11 cells. In words: CellTiter-Glo cell viability assay, MV4:11. Particulars: Homo sapiens, MV4-11, 72 h, 3 days, average of three replicates. The method, then:
as §2

For the compound `CC[C@H](Nc1ncnc2[nH]cnc12)c1nc2cccc(F)c2c(=O)n1-c1ccccc1` [Idelalisib, reference compound], the half-maximal inhibitory concentration (IC50) is 10.6 µM in assay [1], 7.9 µM in assay [2], 3.6 µM in assay [3] and 6.3 µM in assay [4].
